This passage reports relative growth results from published antibiotic growth screens (doi:10.1038/s41589-023-01349-8).

This is one part of the list.

The test system of this assay is A. baumannii ATCC 17978. As to the kind of experiment: relative growth (fraction of control); higher = less inhibition. The note with it: 50 µM.
`Nc1ccc(S(=O)(=O)Nc2ccccn2)cc1` returned a relative growth of 0.925.

`O=C(O)[C@@H]1C[C@H](C(F)(F)F)CN1` returned a relative growth of 0.956.

`O=C(CCCCC(=O)N/N=C/[C@H](O)[C@@H](O)[C@H](O)CO)NO` yielded a relative growth of 0.999.

For `CC#C[C@]1(O)CCC2C3CCC4=CC(=O)CCC4=C3[C@@H](c3ccc(N(C)C)cc3)C[C@@]21C` (stereo partly drawn), the relative growth was 0.925.

In turn, `O=C(O)[C@H](O)[C@@](O)(Cc1ccc(O)cc1)C(=O)O` gave a relative growth of 0.988.

In the case of `CCCCOC(=O)CCCCCCC(=O)OCCCC`, the relative growth was determined as 1.01.

Regarding `Cn1c2c(c(=O)n(C)c1=O)CN(CC1CC1)CN2`, the relative growth is 0.969.

`COCC#Cc1ccc2c(c1)O[C@H](CN(C)S(=O)(=O)c1ccc(OC)cc1)[C@H](C)CN([C@H](C)CO)S2(=O)=O` yielded a relative growth of 1.05.

`O=c1[nH]c(=O)c2ccccc2o1` returned a relative growth of 0.835.

Consider `NC(=O)c1ccc[n+](CC(=O)c2ccccc2)c1`, for which the relative growth was 0.902.

The compound `CC(C)(C)OC(=O)C[C@H]1CC=CC[C@@H](CC(=O)N[C@H](CO)Cc2ccccc2)C(=O)N2CCC[C@@H]2COC1=O` showed a relative growth of 0.856.

In turn, `C#C[C@]1(O)CCC2C3CCc4cc(O)ccc4C3CC[C@@]21C` (stereo partly drawn) came in with a relative growth of 1.04.

Take `O=C(O)CN(CCN(CC(=O)O)CC(=O)O)CC(=O)O.[Na+].[Na+]`: the relative growth turned out to be 0.914.

In turn, `COC(=O)C1=C[C@@H](O)[C@@H](O)[C@H](O[C@@H]2O[C@H](COC(=O)/C=C/c3ccccc3)[C@@H](O)[C@H](O)[C@H]2O)C1` showed a relative growth of 1.07.

The compound `CCOC(=O)C(=O)NCc1nnnn1-c1ccccc1` registered a relative growth of 1.04.

As for `O=C(C[C@@H]1CC[C@@H](NC(=O)c2cnccn2)[C@H](CO)O1)NCc1ccccc1F`, the relative growth is 0.936.

`CN(C)CC(=O)OC[C@@H](O)[C@@H](O)[C@H](O)[C@@H](O)C(=O)[O-].[Na+]` came in with a relative growth of 1.17.

For `C[C@@H](NCCCc1cccc(C(F)(F)F)c1)c1cccc2ccccc12.Cl`, the relative growth turned out to be 0.159.

In the case of `C[C@@H]1CN([C@@H](C)CO)C(=O)c2cccc(NC(=O)Nc3cccc4ccccc34)c2O[C@H]1CN(C)S(=O)(=O)c1cccc(F)c1`, the relative growth was found to be 0.957.

Take `CCc1cnc2c(c1OC)c(=O)n(CCN1CCOCC1)c(=O)n2C`: the relative growth worked out at 0.967.

In turn, `CC(C)Cn1c(=O)n(C)c(=O)c2[nH]cnc21` showed a relative growth of 0.918.

For `COc1ccc([C@@H]([C@H](Cc2ccccc2)OC(C)=O)N2C[C@H]3[C@H]([C@@H](OC(C)=O)c4ccccc4)ON(C)[C@H]3[C@@H]2Cc2ccccc2)cc1`, the relative growth stood at 1.3.

`CNC1(C)C2CCC(C2)C1(C)C.Cl` (stereo not drawn) showed a relative growth of 1.09.

Take `C[C@@]12CC[C@@H]3[C@@](COC(=O)c4ccccc4)(O[C@@H]4O[C@H](CO)[C@@H](O)[C@H](O)[C@H]4O)[C@H](O1)O[C@]3(O)C2`: the relative growth came out at 0.952.

In turn, `C[C@@H]1CN([C@@H](C)CO)S(=O)(=O)c2ccc(-c3cccc(C#N)c3)cc2O[C@H]1CN(C)C(=O)c1cccnc1` displayed a relative growth of 1.1.

`COc1cc([C@@H]2c3cc4c(cc3[C@@H](O[C@@H]3O[C@@H]5CO[C@@H](c6cccs6)O[C@H]5[C@H](O)[C@H]3O)[C@H]3COC(=O)[C@H]23)OCO4)cc(OC)c1O` displayed a relative growth of 0.561.

In the case of `O=C(Nc1ccc2c(c1)[C@@H]1C[C@H](CC(=O)N3CCc4ccccc4C3)O[C@@H](CO)[C@@H]1O2)C1CCOCC1`, the relative growth was found to be 1.05.

`O=C(C[C@H]1CC[C@H]2[C@@H](COC[C@H](O)CN2CC2CCOCC2)O1)N1CCOCC1` yielded a relative growth of 0.938.

For the compound `COc1ccc(S(=O)(=O)N2C[C@H](O)COC[C@H]3O[C@@H](CC(=O)NCc4ccc(Cl)c(Cl)c4)CC[C@@H]32)cc1`, the relative growth was 0.932.

Regarding `C[C@H](CO)N1C[C@H](C)[C@@H](CN(C)C(=O)Nc2ccccc2F)Oc2cc(C#CCN(C)C)ccc2S1(=O)=O`, the relative growth was determined as 1.06.

Consider `O=C([O-])CCNC(=O)c1ccc(/N=N/c2ccc(O)c(C(=O)[O-])c2)cc1.[Na+].[Na+]`, for which the relative growth came to 0.931.

`O=C(C[C@H]1C=C[C@H](NS(=O)(=O)c2ccc(F)cc2)[C@H](CO)O1)N1CCC(Cc2ccccc2)CC1` registered a relative growth of 0.75.

`O=c1ccc2ccccc2o1` returned a relative growth of 1.07.

Regarding `CC1(C)C=Cc2cc3ccc(=O)oc3cc2O1`, the relative growth is 0.964.

Compound `C[C@H](c1cccnc1)N(C(=O)Nc1ccccc1)C1CCCCC1` came in with a relative growth of 1.06.

For the compound `C/C(=C\CO)CC[C@H](C)CCC[C@H](C)CCCC(C)C`, the relative growth was determined as 0.988.

`NC(=O)c1cc2ccccc2oc1=O` returned a relative growth of 1.15.

`Cc1ccc2nc(-c3ccc(/N=C\c4ccc[nH]4)cc3)sc2c1` came in with a relative growth of 1.13.

Turning to `Cc1[nH]c2ncnn2c(=O)c1CCC(=O)O`, the relative growth turned out to be 1.14.

For `CCOC(=O)c1c(C)cc(O)cc1O`, the relative growth amounted to 0.897.

On to `COCC#Cc1cnc2c(c1)C(=O)N([C@@H](C)CO)C[C@H](C)[C@H](CN(C)C(=O)c1cnccn1)O2`, for which the relative growth came out at 1.03.

`C/C(=N\N)c1ccc2ccccc2c1` had a relative growth of 0.937.

For the compound `Cc1ccc(S[C@]2(C(=O)O)CC(=O)N(Cc3cc(C(F)(F)F)cc(C(F)(F)F)c3)[C@@H]2c2ccc(CO)cc2I)cc1`, the relative growth came to 1.06.

For `COc1cccc(-c2cn(CC[C@@H]3CC[C@H](NS(=O)(=O)c4ccccc4Cl)[C@H](CO)O3)nn2)c1`, the relative growth came to 1.01.

For the compound `COc1ccc(S(=O)(=O)N[C@H]2CC[C@H](CCNC(=O)CN3CCOCC3)O[C@@H]2CO)cc1`, the relative growth was 1.06.

In turn, `Cc1c(C(=O)Nc2ccc3ccccc3c2)oc2ccccc12` gave a relative growth of 0.96.

Compound `CN(C)Cc1cn(CC[C@@H]2CC[C@@H](NC(=O)Cc3cccnc3)[C@@H](CO)O2)nn1` showed a relative growth of 1.16.

On to `C=CCOC(=O)[C@H]1[C@@H]2C(=O)O[C@@H](c3ccccc3)[C@@H](c3ccccc3)N2[C@@H](c2ccc(OCCOC(=O)[C@H]3C[C@H]4C(=O)N5CCC[C@H]5C(=O)N4[C@H]3c3cccc(OCCO)c3)cc2)[C@]12C(=O)Nc1ccccc12`, for which the relative growth amounted to 0.95.

The compound `COc1ccccc1CNC(=O)C[C@@H]1CC[C@H]2[C@@H](COC[C@H](O)CN2C(=O)Nc2ccc(F)cc2)O1` displayed a relative growth of 1.07.

For `C[C@H](CO)N1C[C@H](C)[C@H](CN(C)C(=O)Cc2cccnc2)Oc2cc(C#Cc3ccccc3F)ccc2S1(=O)=O`, the relative growth stood at 0.803.

The compound `COc1ccc([Si](C)(C)[C@@H]2[C@@H](CC(=O)N3CCC[C@H]3CO)O[C@]3(C(=O)N(Cc4cccc(N5CCCCC5=O)c4)c4ccccc43)[C@H]2C)cc1` had a relative growth of 1.11.

The compound `COc1c(N2C[C@@H]3CCCN[C@@H]3C2)c(F)cc2c(=O)c(C(=O)O)cn(C3CC3)c12.Cl` gave a relative growth of 0.149.

`O=C(C[C@H]1CC[C@@H]2[C@H](COC[C@@H](O)CN2S(=O)(=O)c2ccc(F)cc2)O1)N[C@H]1CCN(Cc2ccccc2)C1` registered a relative growth of 0.94.

Regarding `COc1cccc(NC(=O)N2C[C@@H](O)COC[C@H]3O[C@@H](CC(=O)NCCCN4CCOCC4)CC[C@@H]32)c1`, the relative growth is 1.02.

Compound `COc1ccc(S(=O)(=O)N(C)C[C@@H]2Oc3cc(C#CC4CC4)ccc3S(=O)(=O)N([C@H](C)CO)C[C@H]2C)cc1` returned a relative growth of 1.11.

Consider `NC(=O)C1CCN(C(=O)c2ccco2)CC1`, for which the relative growth was 1.14.

`COCCOC(=O)N1C(=O)[C@@]2(c3ccccc31)[C@H](C(=O)N1CCCCCCC1)[C@H]1C(=O)O[C@H](c3ccccc3)[C@H](c3ccccc3)N1[C@@H]2c1ccccc1OCCO` yielded a relative growth of 1.08.

With `C=CCc1c(C)[nH]c(N)nc1=O`, the relative growth was 0.979.

Compound `Nc1nc2c(ncn2COC(CO)CO)c(=O)[nH]1.O` registered a relative growth of 1.41.

In the case of `CO[C@@H]1CN(C)C(=O)c2cc(NS(=O)(=O)c3cn(C)cn3)ccc2OC[C@H](C)N(Cc2cccc(F)c2)C[C@@H]1C`, the relative growth came to 0.861.

The compound `COc1ccccc1S(=O)(=O)N[C@@H]1CC[C@@H](CCNC(=O)C2CC2)O[C@@H]1CO` had a relative growth of 1.08.

With `C[C@H]1CN([C@@H](C)CO)S(=O)(=O)c2ccc(Br)cc2O[C@@H]1CN(C)C(=O)C1CCCCC1`, the relative growth stood at 0.831.

`O=C1N[C@H](Cc2ccccc2)COC(=O)[C@@H](Cc2ccc(F)cc2)CCC=CC[C@@H]1CC(=O)N(CCO)Cc1ccccc1` returned a relative growth of 0.982.

For `O=C(NCc1ccco1)c1nc2ncccn2n1`, the relative growth came to 0.988.

For `C[C@@H]1CN([C@H](C)CO)C(=O)c2cc(C#CCc3ccccc3)cnc2O[C@H]1CN(C)CC1CCOCC1`, the relative growth worked out at 1.15.

`Cc1ccc(N2C(=O)c3ccccc3[C@](C)(C(=O)NCCN3CCOCC3)[C@@H]2c2ccc(CO)cc2)nc1` yielded a relative growth of 1.04.

`Cc1noc(C)c1NC(=O)N(C)C[C@H]1Oc2cc(C#CCN(C)C)ccc2S(=O)(=O)N([C@@H](C)CO)C[C@H]1C` displayed a relative growth of 1.11.

For the compound `COc1cc(CO)c(CC(=O)NN)cc1OC`, the relative growth was determined as 0.922.

In turn, `C[C@@H]1CN([C@@H](C)CO)S(=O)(=O)c2ccc(C#CCN(C)C)cc2O[C@H]1CN(C)C(=O)CN(C)C` came in with a relative growth of 0.916.

Compound `O=C(C[C@@H]1CC[C@@H]2[C@H](COC[C@@H](O)CN2S(=O)(=O)c2cccc(F)c2)O1)NCCCN1CCOCC1` registered a relative growth of 0.971.

In the case of `O=C1c2ccccc2[C@@]2(Cc3ccccc3N(C3CC3)C2=O)[C@H](c2ccc(CO)cc2)N1Cc1ccccc1`, the relative growth came to 0.916.

For the compound `CC1(C)C(=O)C=C[C@@]2(C)C1CC(=O)[C@]1(C)C2CC[C@@]2(C)[C@H](c3ccoc3)OC(=O)[C@H]3O[C@]321` (stereo partly drawn), the relative growth stood at 0.956.

`OCc1ccccc1O` registered a relative growth of 1.09.

The compound `Cc1ccccc1S(=O)(=O)N(C)C[C@@H]1Oc2ccc(NC(=O)Nc3cccc(C(F)(F)F)c3)cc2CC(=O)N([C@@H](C)CO)C[C@@H]1C` registered a relative growth of 0.857.

`COc1c(N2CCNC(C)C2)c(F)cc2c(=O)c(C(=O)O)cn(C3CC3)c12` (stereo not drawn) had a relative growth of 0.148.

`N[C@@H](C(=O)O)[C@@H](O)[C@H](O)[C@H](O)CO`: the relative growth worked out at 0.952.

As for `Nc1ncnc2c1ncn2C1O[C@H](COP(=O)(O)OP(=O)([O-])OP(=O)([O-])O)[C@@H](O)[C@H]1O.[Na+].[Na+]` (stereo partly drawn), the relative growth amounted to 0.998.

Turning to `NNC(=O)CCCC[C@H]1SC[C@H]2NC(=O)N[C@H]21`, the relative growth came to 0.978.

In turn, `FC(F)(F)COCC(F)(F)F` displayed a relative growth of 0.971.

For the compound `CN(C)CCOC(=O)COc1ccc(Cl)cc1.Cl`, the relative growth was 1.05.

`NCCN1CCC(C(=O)O)CC1` yielded a relative growth of 1.09.

On to `C/C=C(\C(C)=N\O)c1ccccc1`, for which the relative growth was 1.02.

The compound `C=CC1=C(C(=O)O)N2C(=O)C(NC(=O)/C(=N/OCC(=O)O)c3csc(N)n3)C2SC1` (stereo not drawn) registered a relative growth of 0.884.
